The results in this text go back to US11370762B2, “Vinylarene derivative and application” (SHENYANG RESEARCH INSTITUTE OF CHEMICAL INDUSTRY CO., LTD., priority 2017, dated 2022).

Sequences of proteins named here, by UniProt entry; tags and fusion partners are left off.
UniProt P14902, whole entry: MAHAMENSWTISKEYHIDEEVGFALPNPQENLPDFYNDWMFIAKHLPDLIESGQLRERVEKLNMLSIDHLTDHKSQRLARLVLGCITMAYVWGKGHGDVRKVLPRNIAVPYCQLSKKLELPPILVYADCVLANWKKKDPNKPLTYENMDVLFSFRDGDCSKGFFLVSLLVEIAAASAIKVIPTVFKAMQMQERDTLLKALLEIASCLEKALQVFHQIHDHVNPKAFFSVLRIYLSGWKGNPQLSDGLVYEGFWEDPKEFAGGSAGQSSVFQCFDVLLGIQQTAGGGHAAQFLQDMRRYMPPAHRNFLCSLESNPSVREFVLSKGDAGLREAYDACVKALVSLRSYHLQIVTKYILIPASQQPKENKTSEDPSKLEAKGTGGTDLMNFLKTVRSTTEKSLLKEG

The assay concerns the target T1, IDO1 enzyme in Hela cells (Homo sapiens, UniProt P14902).
T1 construct: endogenous in cells; host or cells: HeLa cells stimulated with human recombinant IFN-γ
In words: Inhibition of IDO1 enzyme in IFN-γ stimulated Hela cells (kynurenine read at 480 nm). In kind it is cell-based. Conditions: 48 h.

Usually inhibition stands for the percentage by which the read-out fell short of the control.

Structures are written as SMILES.

Take `CCCCN(CCCC)c1ccc(/C(C)=C\C(=O)O)cc1NC(=O)Nc1ccc(C)cc1` [Compound 9, (Z)-3-(4-(dibutylamino)-3-(3-(p-tolyl)ureido)phenyl)but-2-enoic acid]: the inhibition at 0.1 µM (read-out: Inhibition rate (%) 100 nmol) was determined as 100%. Further, the inhibition at 10 µM (read-out: Inhibition rate (%) 10 μmol) stood at 100%.
